In ChEMBL document CHEMBL1128788, “The development of a novel series of non-peptide tachykinin NK3 receptor selective antagonists” (Bioorg Med Chem Lett, 1995) one finds IC50 data, which are given here for one molecule.

Chains of the proteins cited; added tags and fusions are not shown.
UniProt P29371, whole entry: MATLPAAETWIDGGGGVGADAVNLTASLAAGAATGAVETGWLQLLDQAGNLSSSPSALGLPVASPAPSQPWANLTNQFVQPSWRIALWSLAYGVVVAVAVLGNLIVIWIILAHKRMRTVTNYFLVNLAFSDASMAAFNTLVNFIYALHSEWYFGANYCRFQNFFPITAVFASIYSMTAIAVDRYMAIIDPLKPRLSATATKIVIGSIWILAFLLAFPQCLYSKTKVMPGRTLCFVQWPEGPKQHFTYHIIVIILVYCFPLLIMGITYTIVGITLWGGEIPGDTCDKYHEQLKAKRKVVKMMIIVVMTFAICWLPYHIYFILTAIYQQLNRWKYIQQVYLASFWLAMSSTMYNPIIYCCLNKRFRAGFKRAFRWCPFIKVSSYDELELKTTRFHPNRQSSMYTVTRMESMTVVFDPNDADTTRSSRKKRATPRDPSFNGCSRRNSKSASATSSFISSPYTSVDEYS

The test concerns the target Neuromedin-K receptor (Homo sapiens, UniProt P29371). Nature of the test: Compound was tested for binding affinity against human Tachykinin receptor 3 in CHO cells. In kind it is cell-based.

`CC(=O)N(C)C1(c2ccccc2)CCN(CCC[C@]2(c3ccc(Cl)c(Cl)c3)CCCN(C(=O)c3ccccc3)C2)CC1` [OSANETANT] yielded an IC50 of 0.21 nM.

What is called IC50 is the point on the concentration scale where inhibition reaches its midpoint. Low values mean greater potency in that assay, high ones weaker potency in that assay.
